Numbering of substitutions follows the chain as printed. Blank lines part the entries; values can stand above or below the binder they belong to.
How the values were obtained:
Human TREM1-Fc = molecular target: T1, Human TREM1-Fc (human, UniProt Q9NP99 21-205, limits assumed); experiment: Fab on human TREM1-Fc, monovalent; method not stated
T1 construct: not shown: Fc part

The chains behind the UniProt entries cited, without tags or fusion partners. Residues count along the entry.
UniProt Q9NP99, 21-205 limits assumed: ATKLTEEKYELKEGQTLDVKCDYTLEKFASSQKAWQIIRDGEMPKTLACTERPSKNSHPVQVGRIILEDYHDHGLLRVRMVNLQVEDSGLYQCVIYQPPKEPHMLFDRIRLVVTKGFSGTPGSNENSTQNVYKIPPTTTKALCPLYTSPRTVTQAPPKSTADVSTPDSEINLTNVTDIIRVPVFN
UniProt Q9NP99, 21-234: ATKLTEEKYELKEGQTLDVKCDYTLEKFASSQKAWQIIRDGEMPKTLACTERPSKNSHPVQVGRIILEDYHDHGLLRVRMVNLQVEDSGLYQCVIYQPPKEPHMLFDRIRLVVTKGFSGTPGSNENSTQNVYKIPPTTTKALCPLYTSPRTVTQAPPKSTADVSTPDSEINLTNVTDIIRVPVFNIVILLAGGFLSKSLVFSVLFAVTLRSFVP

human TREM1 on cells [1] = molecular target: T2, human TREM1 on cells (human, UniProt Q9NP99 21-234); experiment: FACS, CHO human TREM1
T2 construct: Some reporter cells carry a human TREM1/CD3 zeta fusion instead; also called CHO-huT1; CHO-hT1

human TREM1 on cells [2] = molecular target: T2, human TREM1 on cells; experiment: FACS, human neutrophils

Kd (Human TREM1-Fc): 91.4 nM | koff (Human TREM1-Fc): 0.00748 s⁻¹ | kon (Human TREM1-Fc): 81900 M⁻¹ s⁻¹
B1: T1-17 Fab (Fab, V domains shown)
VH: QVQLQESGPGLVKPSETLSLTCTVSGGSISSYYWSWIRQPPGKGLEWIGSIYYSGSTNYNPSLKSRVTISVDTSKNQFSLKLSSVTAADTAVYYCARGAPGGRHNWFDPWGQGTLVTVSS
VL: DIQMTQSPSSLSASVGDRVTITCQASQDISNYLNWYQQKPGKAPKLLIYDASNLATGVPSRFSGSGSGTDFTFTISSLQPEDIATYYCQQSDIHPRTFGGGTKVEIK
notes: Fab of T1-17

FOB Fold Over Background (human TREM1 on cells [1]): 298 fold | FOB Fold Over Background (human TREM1 on cells [2]): 1.6 fold
B2: T1-16 (antibody, IgG1, V domains shown)
VH: EVQLVESGGGLVQPGRSLRLSCAASGFTFDDYAMHWVRQAPGKGLEWVSGISWNSGSIGYADSVKGRFTISRDNAKNSLYLQMNSLRAEDTALYYCAKGPRMSGWWADWGQGTLVTVSS
VL: DIQMTQSPSSVSASVGDRVTITCRASQGISSWLAWYQQKPGKAPKLLIYAASSLQSGVPSRFSGSGSGTDFTLTISSLQPEDFATYYCQQADTLPITFGGGTKVEIK
notes: huIgG1; also called TI-16; ADI-19083

FOB Fold Over Background (human TREM1 on cells [1]): 420 fold | FOB Fold Over Background (human TREM1 on cells [2]): 1.4 fold
B3: T1-19 (antibody, IgG1, V domains shown)
VH: EVQLVESGGGLVQPGGSLRLSCAASGFTFSDHHMDWVRQAPGKGLEWVGRTRNKANSYTTEYAASVKGRFTISRDDSKNSLYLQMNSLKTEDTAVYYCARGPLGYKLWGQGTLVTVSS
VL: B2 VL with S53N, D92N, T93S, L94F, I96L
notes: huIgG1; also called TI-19; ADI-19086

FOB Fold Over Background (human TREM1 on cells [1]): 362 fold | FOB Fold Over Background (human TREM1 on cells [2]): 1.4 fold
B4: T1-27 (antibody, IgG1, V domains shown)
VH: QVQLQESGPGLVKPSQTLSLTCTVSGGSISSGGYYWSWIRQHPGKGLEWIGYIYYSGSTYYNPSLKSRVTISVDTSKNQFSLKLSSVTAADTAVYYCARDSSIAGRATLSFDYWGQGTLVTVSS
VL: B2 VL with V11L, G28S, W32Y, A34N, A91S, D92F, T93Y, L94D
notes: huIgG1; also called TI-27

FOB Fold Over Background (human TREM1 on cells [1]): 489 fold | FOB Fold Over Background (human TREM1 on cells [2]): 6.9 fold
B5: T1-24 (antibody, IgG1, V domains shown)
VH: B2 VH with S52T, M102L, S103L, G104S, W105A, W106L, A107D, D108V, L114M
VL: DIQMTQSPSTLSASVGDRVTITCRASQSISSWLAWYQQKPGKAPKLLIYKASSLESGVPSRFSGSGSGTEFTLTISSLQPDDFATYYCQQDSIYPITFGGGTKVEIK
notes: huIgG1; also called TI-24; ADI-19150

FOB Fold Over Background (human TREM1 on cells [1]): 452 fold | FOB Fold Over Background (human TREM1 on cells [2]): 2.6 fold
B6: T1-25 (antibody, IgG1, V domains shown)
VH: B2 VH with P100G, R101S, M102R, S103Y, G104S, W105H, W106F, A107D, D108Y
VL: EIVLTQSPATLSLSPGERATLSCRASQSVSSYLAWYQQKPGQAPRLLIYDASNRATGIPARFSGSGSGTDFTLTISSLEPEDFAVYYCQQRSVLPLTFGGGTKVEIK
notes: huIgG1; also called TI-25; ADI-19092

Kd (Human TREM1-Fc): 186 nM | koff (Human TREM1-Fc): 0.0146 s⁻¹ | kon (Human TREM1-Fc): 78800 M⁻¹ s⁻¹
B7: T1-18 Fab (Fab, V domains shown)
VH: B2 VH with S57D, S78T, S103V, G104T, W105H, W106L, A107D, D108V, L114M
VL: B5 VL
notes: Fab of T1-18

FOB Fold Over Background (human TREM1 on cells [1]): 27.2 fold | FOB Fold Over Background (human TREM1 on cells [2]): 1 fold
B8: T1-32 (antibody, IgG1, V domains shown)
VH: QLQLQESGPGLVKPSETLSLTCTVSGGSISSSSYYWGWIRQPPGKGLEWIGSIYYSGSTYYNPSLKSRVTISVDTSKNQFSLKLSSVTAADTAVYYCARDAPAVVGESPAFDIWGQGTMVTVSS
VL: B2 VL with V11L, G28S, S31R, W32Y, A34N, A91S, D92L, T93D, I96F
notes: huIgG1; also called TI-32

FOB Fold Over Background (human TREM1 on cells [1]): 448 fold | FOB Fold Over Background (human TREM1 on cells [2]): 2.6 fold
B9: T1-23 (antibody, IgG1, V domains shown)
VH: B2 VH with S52T, M102L, S103L, G104S, W105A, W106L, A107D, D108V, L114M
VL: B5 VL with S30G, D91H, S92Q, I93S, Y94F, P95S, I96P
notes: huIgG1; also called TI-23; ADI-19090

Kd (Human TREM1-Fc): 70.4 nM | koff (Human TREM1-Fc): 0.00566 s⁻¹ | kon (Human TREM1-Fc): 80400 M⁻¹ s⁻¹
B10: T1-11 Fab (Fab, V domains shown)
VH: QLQLQESGPGLVKPSETLSLTCTVSGGSISSSSYYWGWIRQPPGKGLEWIGSIYYSGSTYYNPSLKSRVTISVDTSKNQFSLKLSSVTAADTAVYYCARSGEYGFDLWGRGTLVTVSS
VL: not shown
notes: Fab of T1-11

Kd (Human TREM1-Fc): 36.1 nM | koff (Human TREM1-Fc): 0.01 s⁻¹ | kon (Human TREM1-Fc): 277000 M⁻¹ s⁻¹
B11: T1-78 Fab (Fab, V domains shown)
VH: QLQLQESGPGLVKPSETLSLTCTVSGGSISSSSYYWGWIRQPPGKGLEWIGSIYYSGSTYYNPSLKSRVTISVDTSKNQFSLKLSSVTAADTAVYYCARDLGQYEGYFDLWGRGTLVTVSS
VL: not shown
notes: Fab of T1-78

Kd (Human TREM1-Fc): 7.37 nM | koff (Human TREM1-Fc): 0.00292 s⁻¹ | kon (Human TREM1-Fc): 396000 M⁻¹ s⁻¹
B12: T1-36 Fab (Fab, V domains shown)
VH: QVQLVESGGGVVQPGRSLRLSCAASGFTFSSYGMHWVRQAPGKGLEWVAVISYDGSNKYYADSVKGRFTISRDNSKNTLYLQMNSLRAEDTAVYYCARPDYYSSRGVFDIWGQGTMVTVSS
VL: not shown
notes: Fab of T1-36

FOB Fold Over Background (human TREM1 on cells [1]): 408 fold | FOB Fold Over Background (human TREM1 on cells [2]): 1.3 fold
B13: T1-20 (antibody, IgG1, V domains shown)
VH: EVQLVESGGGLVQPGGSLRLSCAASGFTFSSYWMSWVRQAPGKGLEWVANIKQDGSEKYYVDSVKGRFTISRDNAKNSLYLQMNSLRAEDTAVYYCARDAPQLGLDVWGQGTMVTVSS
VL: not shown
notes: huIgG1; also called TI-20; ADI-19087

FOB Fold Over Background (human TREM1 on cells [1]): 231 fold | FOB Fold Over Background (human TREM1 on cells [2]): 1.2 fold
B14: T1-21 (antibody, IgG1, V domains shown)
VH: EVQLVESGGGLVQPGGSLRLSCAASGFTFSSYSMNWVRQAPGKGLEWVSYISSSSSTIYYADSVKGRFTISRDNAKNSLYLQMNSLRAEDTAVYYCARGGPLGYGDYKGMDVWGQGTTVTVSS
VL: DIQLTQSPSSLSASVGDRVTITCRASQSISSFLNWYQQKPGKAPKLLIYAASSLQSGVPSRFSGSGSGTDFTLTISSLQPEDFATYYCQQSYSDLTFGGGTKVEIK
notes: huIgG1; also called TI-21; ADI-19088

FOB Fold Over Background (human TREM1 on cells [1]): 19.4 fold | FOB Fold Over Background (human TREM1 on cells [2]): 1.1 fold
B15: T1-30 (antibody, IgG1, V domains shown)
VH: QLQLQESGPGLVKPSETLSLTCTVSGGSISSSSYYWGWIRQPPGKGLEWIGSIYYSGSTYYNPSLKSRVTISVDTSKNQFSLKLSSVTAADTAVYYCARGRKAAAGIDEAEYFQHWGQGTLVTVSS
VL: B14 VL with L4M, L11V, S28G, F32W, N34A, S91V, Y92I, D94F, L95P
notes: huIgG1; also called TI-30

Kd (Human TREM1-Fc): 31.9 nM | koff (Human TREM1-Fc): 0.00636 s⁻¹ | kon (Human TREM1-Fc): 199000 M⁻¹ s⁻¹
B16: T1-7 Fab (Fab, V domains shown)
VH: QVQLVQSGAEVKKPGASVKVSCKASGYTFTSYYMHWVRQAPGQGLEWMGIINPSGGSTSYAQKFQGRVTMTRDTSTSTVYMELSSLRSEDTAVYYCARGLIYGDAFDYWGQGTLVTVSS
VL: not shown
notes: Fab of T1-7

FOB Fold Over Background (human TREM1 on cells [1]): 7.9 fold | FOB Fold Over Background (human TREM1 on cells [2]): 1.1 fold
B17: T1-29 (antibody, IgG1, V domains shown)
VH: QLQLQESGPGLVKPSETLSLTCTVSGGSISSSSYYWGWIRQPPGKGLEWIGSIYYSGSTYYNPSLKSRVTISVDTSKNQFSLKLSSVTAADTAVYYCARDGGGTAQADGAYYYGMDVWGQGTTVTVSS
VL: B6 VL with R91G, S92V, V93N, L94Y, L96F
notes: huIgG1; also called TI-29

FOB Fold Over Background (human TREM1 on cells [1]): 438 fold | FOB Fold Over Background (human TREM1 on cells [2]): 3.8 fold
B18: T1-54 (antibody, IgG1, V domains shown)
VH: QVQLVQSGAEVKKPGSSVKVSCKASGGTFSSYAISWVRQAPGQGLEWMGGIIPIFGTANYAQKFQGRVTITADESTSTAYMELSSLRSEDTAVYYCARHWYALGSFDIWGQGTMVTVSS
VL: B6 VL with L4M, A51S, R91H, S92D, L94W, L96I
notes: huIgG1; also called TI-54; ADI-19129

Kd (Human TREM1-Fc): 4.26 nM | koff (Human TREM1-Fc): 0.000458 s⁻¹ | kon (Human TREM1-Fc): 108000 M⁻¹ s⁻¹
B19: T1-34 Fab (Fab, V domains shown)
VH: EVQLVESGGGLVKPGGSLRLSCAASGFTFSSYSMNWVRQAPGKGLEWVSSISSSSNYIYYADSVKGRFTISRDNAKNSLYLQMNSLKAEDTAVYYCARRPDDRRGLFQHWGQGTLVTVSS
VL: B5 VL with S30N, Y49S, K50D, D91Y, S92G, I93P, I96Y
notes: Fab of T1-34

FOB Fold Over Background (human TREM1 on cells [1]): 346 fold | FOB Fold Over Background (human TREM1 on cells [2]): 1.7 fold
B20: T1-80 (antibody, IgG1, V domains shown)
VH: QVQLVESGGGVVQPGRSLRLSCAASGFTFSSYGMHWVRQAPGKGLEWVALIWYDGSNKYYADSVKGRFTISRDNSKNTLYLQMNSLRAEDTAVYYCARELIVGATGGLTYYYGMDVWGQGTTVTVSS
VL: EIVMTQSPATLSVSPGERATLSCRASQSVGSNLAWYQQKPGQAPRLLIYGASTRATGIPARFSGSGSGTEFTLTISSLQSEDFAVYYCQQDHDRPLTFGGGTKVEIK
notes: huIgG1; also called TI-80; ADI-19159

Kd (Human TREM1-Fc): 213 nM | koff (Human TREM1-Fc): 0.00862 s⁻¹ | kon (Human TREM1-Fc): 40600 M⁻¹ s⁻¹
B21: T1-14 Fab (Fab, V domains shown)
VH: QVQLVESGGGVVQPGRSLRLSCAASGFTFSSYGMHWVRQAPGKGLEWVAVISYDGSNKYYADSVKGRFTISRDNSKNTLYLQMNSLRAEDTAVYYCARRSSGDYLDVWGQGTMVTVSS
VL: not shown
notes: Fab of T1-14
